The target of one assay is human Cx26 HCs (Homo sapiens, UniProt P29033). Description: Cx26-dependent growth complementation assay in E. coli LB2003. Type of assay: cell-based. The following applies: for Cx26 (% inhibition): Table 6, tested form: HCl.
A further assay has as its target Cx43 HCs (Homo sapiens, UniProt P17302). Put plainly: Cx43-dependent growth complementation assay in E. coli LB2003. Type of assay: cell-based. The following applies: IC50 Cx26/IC50 Cx43.

By UniProt entry, the sequences of proteins in these tests, tags left out.
UniProt P17302, whole entry: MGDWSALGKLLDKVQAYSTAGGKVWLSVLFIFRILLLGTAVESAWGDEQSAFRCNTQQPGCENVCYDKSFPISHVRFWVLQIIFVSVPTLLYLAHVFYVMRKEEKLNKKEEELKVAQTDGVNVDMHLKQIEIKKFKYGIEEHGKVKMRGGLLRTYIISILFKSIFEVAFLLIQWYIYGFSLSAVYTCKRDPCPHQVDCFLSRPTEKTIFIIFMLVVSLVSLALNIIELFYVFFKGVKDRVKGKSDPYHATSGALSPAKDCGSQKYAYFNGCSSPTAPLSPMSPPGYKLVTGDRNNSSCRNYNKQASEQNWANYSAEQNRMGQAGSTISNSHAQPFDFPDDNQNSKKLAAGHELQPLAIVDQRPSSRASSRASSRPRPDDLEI

Here are results for two compounds from patent US12286452B2, “Amphiphilic aminoglycoside connexin hemichannel inhibitors” (Texas Tech University System, priority 2018, dated 2025).

Consider `NCC1OC(OC2C(N)CC(N)C(OC3OC(COCc4cccc(-c5ccccc5)c4)C(OCc4cccc(-c5ccccc5)c4)C(N)C3O)C2O)C(O)C(O)C1O` (centres unmarked) [Compound 16, 4″,6″-Di-O-(3-phenylbenzyl)-kanamycin], for which the IC50 (in general, the point on the concentration scale where inhibition reaches its midpoint) on human Cx26 HCs (read-out: Cx26 IC50, 4″,6″-disubstituted AKs, Table 5) turned out to be 6.6 µM. This compound gave a Cx43/Cx26 Selectivity on Cx43 HCs (Table 5) of 1.23.
As for `NCC1OC(OC2C(N)CC(N)C(OC3OC(COc4ccc(-c5nc6ccccc6[nH]5)cc4)C(O)C(N)C3O)C2O)C(O)C(O)C1O` (centres unmarked), the entries for the “Cx26 (% inhibition)” value on human Cx26 HCs (15 μM) and at human Cx26 HCs (50 μM) were 83.1 ± 2.1% and 85.5 ± 1.7%, respectively. This compound registered a Cx43/Cx26 Selectivity at Cx43 HCs (Table 7, tested form: HCl) of 0.34.
